Key:
[1] = target: T1, 5-hydroxytryptamine receptor 2C (Homo sapiens, UniProt P28335); test: Displacement of [3H]-mesulergine from 5HT2C receptor expressed in CHO cell membranes at 10 uM after 90 mins by scintillation counting
[2] = target: T1, 5-hydroxytryptamine receptor 2C; test: Displacement of [3H]-mesulergine from 5HT2C receptor expressed in CHO cell membranes at 1 uM after 90 mins by scintillation counting

Amino acid sequences for entries named in this document (tags omitted). A change or cut given only in a name is not applied to a line headed by its entry.
UniProt P28335: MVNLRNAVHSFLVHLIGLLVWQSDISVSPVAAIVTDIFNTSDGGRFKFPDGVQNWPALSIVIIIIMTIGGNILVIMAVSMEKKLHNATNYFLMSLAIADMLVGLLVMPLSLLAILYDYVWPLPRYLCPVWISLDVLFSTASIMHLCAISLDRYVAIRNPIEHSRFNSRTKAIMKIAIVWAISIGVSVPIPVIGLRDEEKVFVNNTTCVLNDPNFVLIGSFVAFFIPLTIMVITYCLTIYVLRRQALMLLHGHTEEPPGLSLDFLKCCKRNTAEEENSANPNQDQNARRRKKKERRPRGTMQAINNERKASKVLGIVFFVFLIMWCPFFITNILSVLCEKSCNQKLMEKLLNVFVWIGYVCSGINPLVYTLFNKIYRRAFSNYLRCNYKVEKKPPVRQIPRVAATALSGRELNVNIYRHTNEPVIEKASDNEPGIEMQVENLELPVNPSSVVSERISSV

Row | SMILES | inhibition [1] [%] | inhibition [2] [%]
1 | O=C(O)C(F)(F)F.c1cc2c(c(C3CCNCC3)c1)CCCC2 | 98 | 91
2 | Cl.Oc1cccc(C2CCNCC2)c1 | 11 | 0
3 | Cl.Fc1ccc(C2CCNCC2)cc1 | 18 | 4
4 | Cl.FC(F)(F)c1ccc(C2CCNCC2)cc1 | 37 | 16
5 | O=C(O)C(F)(F)F.c1ccc2c(C3CCNCC3)cccc2c1 | 98 | 90
6 | Cl.FC(F)(F)c1ccccc1C1CCNCC1 | 85 | 40
7 | Cc1cccc(C2CCNCC2)c1C.Cl | 82 | 31
8 | CN(C)c1ccc(C2CCNCC2)cc1.Cl | 16 | 7
9 | COc1cccc(C2CCNCC2)c1.Cl | 47 | 5
10 | Cl.Clc1ccc(C2CCNCC2)cc1 | 26 | 3

Source: ChEMBL document CHEMBL2010681, “Synthesis and SAR study of 4-arylpiperidines and 4-aryl-1,2,3,6-tetrahydropyridines as 5-HT₂C agonists” (Bioorg Med Chem Lett, 2012)
